Earlier results in US20250154129A1, “CRYSTALLINE PHARMACEUTICALLY ACCEPTABLE SALT AND POLYMORPHIC FORM OF THE GLUTAMINYL CYCLASE INHIBITOR VAROGLUTAMSTAT” (VIVORYON THERAPEUTICS N.V., priority 2023, published 2025).

System: extracellular amyloid-β plaques in the brain
Conditions: early AD patients; time- and dose-dependent; cited from earlier work

Which Aβ deposits does the source give for “aducanumab: monoclonal IgG1 antibody that targets extracellular amyloid-β plaques in the brain” here?
Its Aβ deposits is “persistent reductions”.
